Assay: Solubility in ethanol/propylene glycol/water (85:10:5)
Assay type: physicochemical
Conditions: R1 in meta position (compound of the invention); ethanol/propylene glycol/water (85:10:5) by volume
Procedure: The solubilities are measured in ethanol/propylene glycol/water (85:10:5) (proportions are by volume).

2,2′-[[(3-Methoxyethyl)phenyl]methylene]bis[4-[[(5-methyl-1H-tetrazol-1-yl)imino]methyl]]phenol [Example 16]
Meta Position Solubiity: 1.14 mg/mL

— patent publication US8119672B2, “Compounds, compositions and methods for treating or preventing pneumovirus infection and associated diseases” (Microdose Therapeutx, Inc., priority 2002, dated 2012)
